Values of other authors, collected in PMC5771238 (Neuropharmacology, 2017).
Like-named read-outs stand apart in the source and are kept apart here.

Target: CB1 receptor
Details: cited from earlier work

## O=C(Nc1ccc(Cl)cc1)Nc1cccc(-c2cccc(N3CCCC3)n2)c1 [PSNCBAM-1, 1-(4-chlorophenyl)-3-{3-[6-(pyrrolidin-1-yl)pyridin-2-yl]phenyl}urea]
At 200 nM CP55,940, ref Horswill et al., 2007
  IC50: 42.1 nM
Ref Baillie et al., 2013
  IC50: 2.72 nM
